# Reference: patent US20090030067A1, “Anti-proliferative combination therapy comprising satraplatin or jm118 and a taxane” ((GPC Biotech AG), priority 2005, published 2009)
# Test system: prostatic adenocarcinoma cell line PC-3
# Experiment: SRB cytotoxicity assay, single compounds, PC-3
# Type: cell-based
# Conditions: 48 h
# Description: The prostatic adenocarcinoma cell line PC-3 (ATCC order number: CRL-1435; Invest Urol (1979) 17,16; Cytogenet Cell Genet (1993) 62,183) was used. […] The cells were cultured at 37° C., 5% CO2 in F-12K media supplemented with 10% FCS and 1% Pen/Strep.
# […]. The cells were incubated for 48 hours and the effect of this combination of compounds on cellular proliferation was determined with the SRB assay.
structure (smiles),measurement,value
"CC(=O)O[C@@]12CO[C@@H]1C[C@H](O)[C@@]1(C)C(=O)[C@H](O)C3=C(C)[C@@H](OC(=O)[C@H](O)[C@@H](NC(=O)OC(C)(C)C)c4ccccc4)C[C@@](O)([C@@H](OC(=O)c4ccccc4)[C@H]21)C3(C)C [Docetaxel, N-debenzoyl-N-tert-butoxycarbonyl-10-deacetyl paclitaxel]",IC50,8 nM
